# Apparent affinities of Ab-91 variants for a coronavirus HR2 peptide

From the AlphaSeq antibody data of Engelhart et al. 2022 (doi:10.1038/s41597-022-01779-4), copy in the FLAb collection.

Target: peptide PDVDLGDISGINAS, taken from heptad repeat 2 (HR2) of SARS-CoV-2 spike.

Parent scFv Ab-91: VL joined to VH by a (GGGGS)3 linker. Changes lie in the heavy chain CDRs alone.
VL: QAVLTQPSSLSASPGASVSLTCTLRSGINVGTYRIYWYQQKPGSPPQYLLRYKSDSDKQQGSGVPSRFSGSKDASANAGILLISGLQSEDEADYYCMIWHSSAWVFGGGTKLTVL
VH: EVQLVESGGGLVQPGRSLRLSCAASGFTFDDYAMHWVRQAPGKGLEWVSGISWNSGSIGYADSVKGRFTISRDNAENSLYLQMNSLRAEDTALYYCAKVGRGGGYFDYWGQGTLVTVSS

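The starting antibody came from a phage panning campaign against this peptide. The library (AAYL51) carries one to three amino acid substitutions per variant, with no insertions or deletions. In AlphaSeq, yeast of one mating type display the scFv and yeast of the other type display the target. After mating in shaken culture at 30 °C for 16 h, diploids were selected and their barcode pairs sequenced. A regression on co-assayed BCL2-family reference pairs converts the normalised counts of each replicate to an apparent Kd. There are three technical replicates.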

Positions count from residue 1 of the parent VH; T28D puts D in place of T.
This list gathers variants with a substitution at I58 (VH, numbered from residue 1).
Each Kd is an estimate from the mating assay, the geometric mean of the replicates in which the pair was seen; lower is stronger.
Where no diploid with the target was found in any replicate, the entry reads "nd": below detection, most likely a poor binder, though not proof of it.

The variant T28D+I58V+V64H showed 620 nM (3 of 3 replicates; controls 1 of 9). For G50L+I58Y+Y105D, the assay gave nd (0 of 3 replicates; controls 1 of 9). The variant I58C+V64D+K65G gave 290 µM (1 of 3 replicates; controls 2 of 9). For S55D+I58N, the assay gave nd (0 of 3 replicates; controls 0 of 9). With G26E+M34Q+I58T the result was 9.5 µM (2 of 3 replicates; controls 5 of 9). With D31A+I58E+Y105D the result was 16 µM (1 of 3 replicates; controls 1 of 9). With A33F+W53T+I58M the result was nd (0 of 3 replicates; controls 2 of 9). The variant F27P+I58C+F106E showed 68 µM (3 of 3 replicates; controls 5 of 9). With M34N+I58L+R101T the result was 85 µM (2 of 3 replicates; controls 4 of 9).

The variant D30T+S52V+I58F gave nd (0 of 3 replicates; controls 0 of 9). With W53N+I58W the result was 2.4 µM (2 of 3 replicates; controls 2 of 9). The variant G50I+I58G+G103E showed nd (0 of 3 replicates; controls 0 of 9). With I58C+Y60R+S63K the result was 9.8 µM (1 of 3 replicates; controls 1 of 9). The variant I58R+D62Y+V64D showed 7.8 µM (1 of 3 replicates; controls 1 of 9). The variant I58M showed nd (0 of 3 replicates; controls 1 of 9). For S55I+I58R+V99K, the assay gave nd (0 of 3 replicates; controls 0 of 9). For I58P+G102P+D107L, the assay gave nd (0 of 3 replicates; controls 1 of 9). With I58H+G102K the result was nd (0 of 3 replicates; controls 1 of 9).

With H35G+I58W+R101V the result was 9.2 µM (1 of 3 replicates; controls 1 of 9). The variant F27V+D31Y+I58M gave 12 nM (3 of 3 replicates; controls 5 of 9). With I51A+I58T+K65N the result was nd (0 of 3 replicates; controls 0 of 9). The variant F29D+I58E+G103R showed 16 µM (3 of 3 replicates; controls 2 of 9). The variant I58A+D62K+F106Q showed 540 nM (2 of 3 replicates; controls 0 of 9). With F29P+S57C+I58S the result was nd (0 of 3 replicates; controls 0 of 9). The variant I58W+G59W+V99K showed nd (0 of 3 replicates; controls 2 of 9). For T28A+S55D+I58P, the assay gave 390 µM (3 of 3 replicates; controls 6 of 9). The variant I58K+A61E+Y105W gave 1.9 µM (2 of 3 replicates; controls 5 of 9).

The variant I58T+V64D+K65A showed nd (0 of 3 replicates; controls 2 of 9). The variant Y32T+I58G+G102I showed 750 µM (1 of 3 replicates; controls 4 of 9). The variant G56D+I58M+Y105S gave 9.4 nM (3 of 3 replicates; controls 4 of 9). The variant F29I+I58F showed 1.1 µM (3 of 3 replicates; controls 4 of 9). The variant F27S+I58D+G100I gave nd (0 of 3 replicates; controls 0 of 9). The variant T28I+I58F+G59R showed nd (0 of 3 replicates; controls 0 of 9). For N54Q+I58E+D107R, the assay gave 44 µM (1 of 3 replicates; controls 3 of 9). The variant S57I+I58G+F106H showed 66 µM (3 of 3 replicates; controls 4 of 9). For I58Q+G59T+V64I, the assay gave 220 µM (1 of 3 replicates; controls 3 of 9).

The variant G56H+I58W+Y60D showed 16 µM (1 of 3 replicates; controls 1 of 9). The variant F27K+I58S showed nd (0 of 3 replicates; controls 0 of 9). The variant I58A+A61R+G104R showed nd (0 of 3 replicates; controls 0 of 9). For T28Q+D31R+I58Q, the assay gave 1.8 nM (3 of 3 replicates; controls 4 of 9). The variant Y32L+I58M+D107A gave nd (0 of 3 replicates; controls 0 of 9). The variant M34Q+N54L+I58W gave 7.2 µM (1 of 3 replicates; controls 0 of 9). The variant D31G+I58T showed 1.7 nM (3 of 3 replicates; controls 4 of 9). With G50F+I51Y+I58D the result was 14 µM (2 of 3 replicates; controls 5 of 9).

A selection of 2 entries from above:

{"changes": "F29D+I58E+G103R", "Kd (apparent)": "16 µM", "detected": "3 of 3", "signal with controls": "2 of 9"}
{"changes": "S55I+I58R+V99K", "Kd (apparent)": "nd", "detected": "0 of 3", "signal with controls": "0 of 9"}

Background: pairings of library AAYL51 with three empty control strains gave a value in 21% of cases (median 34 µM, 5th percentile 1.8 µM). Values in that range, when seen in few replicates, are hard to tell from nonspecific mating. For each scFv, signals with the empty controls are counted beside the result.